Measurements as given in patent US5023359A, “Use of organic salts of copper for the treatment of honeybee's parasitic diseases” (priority 1990, dated 1991).

Legend:
honeybees = test: Appetency of the honeybees (consumption of syrup in small cases, batches of 100 honeybees); type: in vivo; conditions: relative to pure sugar syrup
Description: It should be noted that the pollen has been made available to the honeybees in a sufficient amount inside the small cases, without being admixed to the syrup. The determinations have been performed every day and the length of the vertical bars of the diagrams hereabove, are proportional to the deviation of the observed results. They evidence a clearly higher […] case of the utilization of the compounds of this invention. The results mentioned in the preceding paragraphs substantially relate to experiments performed by means of Copper Gluconate. […] The results of these tests are gathered in Table 7 hereinafter in which the figures correspond to measures performed on honeybees placed in small cases, having pollen to their disposal, and are means expressed in microliters per honeybee and per day for N countings.

Varroa jacobsoni = test: Action against Varroa jacobsoni in full-size hives: counting of fallen/remaining Varroas, efficiency; type: in vivo
Experimental: 1°--A specific distinctive action against Varroa jacobsoni shown by the counting of the eliminated Varroas, when the hives are treated by nourishing materials with copper gluconate at different doses (0 g/l-0.2 g/l-0.5 g/l).
The honeybees have been fed with syrup of sucrose at 66% w/w containing increasing concentrations of Copper Gluconate.
Each hive was provided at its lower part with a plastic plate coated with a consistent grease. Each day at the same time, the plate was discarded and the counting of the Varroas fallen on the plate, was carried out. A grid surmounting this plate avoid that the honeybees may spontaneously proceed with the discharge of the Varroas.
The results shown in FIG. 2 have been obtained following experiments performed at full size in hives containing from 20,000 to 50,000 honeybees.
2°--The efficiency of the treatment has been defined as the ratio between the number of Varroas subsiding in the various colonies of an apiary after treatment by solutions at various concentrations, and the number of Varroas contained in the control hives, these two figures have been measured after treatment with Amitraze.
This experiment has been carried out in a series of 14 hives and the result thereof are compiled in the Table 3 figuring herein after.
These experiments allow to obtain the results of Table 3 above, and were carried out in full size on a set of 14 hives.
Each hive was given 6.75 l of syrup of sucrose at 66% w/w at various concentrations of copper gluconate ranging from 0.02 to 0.5 g/l.
Measurements of the falls of the Varroas have been performed, at first, every day then every three days starting from the initiation of the delivery of the syrup.
To this end, a plate coated with a consistent grease was arranged at the bottom of each hive and protected with a grid as above-mentioned, in order to allow the counting of the Varroas. The fall begins to be significative in relation to the control hives which have only been given pure sugar syrup, after absorption by the honeybees of 3 liters of syrup per hive in 10 days.
The counting of the remaining Varroas has been performed 2 days after the last delivery of syrup while submitting each hive to a treatment of shock by means of an acaricide (in these circumstances the marketed composition sold under the Tread Name AMITRAZE).
The efficiency of the treatment with Copper Gluconate is determined in ascribing the number of Varroas fallen during the treatment to the total number of Varroas resulting from the addition of fallen Varroas and existing Varoas.
The averages and the standard deviations have been calculated for the number of performed measures corresponding to the number of hives, this figure being mentioned between hyphens following the figures of the third column in Table 3.

Solubility in water = conditions: 20° C.

Substance	Appetency, RELATIVE VALUES / PURE SUGAR SYRUP, AVERAGE (honeybees; average of tests)	Appetency, RELATIVE VALUES / PURE SUGAR SYRUP, TEST 1 (honeybees; test 1 (first concentration tested))	Appetency, RELATIVE VALUES / PURE SUGAR SYRUP, TEST 2 (honeybees; test 2 (second concentration tested))	EFFICIENCY (Varroa jacobsoni; 0,2 g/l copper gluconate in syrup)	EFFICIENCY (Varroa jacobsoni; 0,5 g/l copper gluconate in syrup)	EFFICIENCY (Varroa jacobsoni; 1 g/l copper gluconate in syrup)	mean efficiency with respect to the control hives (Varroa jacobsoni; all concentrations) [%]	water solubility (Solubility in water) [%]
Copper gluconate	102,9%	105,5%	100,3%	79,8%	74,7%	86,7%	80±6	–
Copper 1-glutamate	–	–	–	–	–	–	–	4
Copper 1-aspartate	–	–	–	–	–	–	–	1
